Values of other authors, collected in patent publication US8945549B2, “Methods of treating antinociceptive tolerance” (Saint Louis University, priority 2010, dated 2015).

Amino acid sequences for entries named in this document (tags omitted).
UniProt Q99500, whole entry, species assumed: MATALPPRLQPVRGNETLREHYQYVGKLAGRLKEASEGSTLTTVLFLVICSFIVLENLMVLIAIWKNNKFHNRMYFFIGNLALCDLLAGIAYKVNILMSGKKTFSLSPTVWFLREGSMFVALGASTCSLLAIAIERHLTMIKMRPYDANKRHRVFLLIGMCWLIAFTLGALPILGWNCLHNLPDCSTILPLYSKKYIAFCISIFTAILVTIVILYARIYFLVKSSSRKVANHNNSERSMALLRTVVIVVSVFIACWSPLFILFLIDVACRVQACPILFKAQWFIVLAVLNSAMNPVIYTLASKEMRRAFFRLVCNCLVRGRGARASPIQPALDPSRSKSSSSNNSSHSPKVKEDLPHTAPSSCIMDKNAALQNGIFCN
UniProt P21453, whole entry, species assumed: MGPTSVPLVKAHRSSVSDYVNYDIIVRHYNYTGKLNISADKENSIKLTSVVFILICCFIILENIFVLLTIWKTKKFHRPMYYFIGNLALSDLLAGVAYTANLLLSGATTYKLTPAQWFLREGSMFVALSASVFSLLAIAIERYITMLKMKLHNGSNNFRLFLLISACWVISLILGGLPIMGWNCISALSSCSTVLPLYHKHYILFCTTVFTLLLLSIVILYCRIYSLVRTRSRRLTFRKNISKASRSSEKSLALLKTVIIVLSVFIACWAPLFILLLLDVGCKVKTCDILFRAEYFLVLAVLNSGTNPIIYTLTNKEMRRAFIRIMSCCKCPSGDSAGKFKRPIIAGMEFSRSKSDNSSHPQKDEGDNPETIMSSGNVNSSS

Legend:
S1P3 = S1P3 (Homo sapiens, UniProt Q99500); settings: relative to S1P1; cited from earlier work
S1P1 = S1P1 (Homo sapiens, UniProt P21453); settings: cited from earlier work

In the case of `CCCCCCCCc1ccc(CC[C@](N)(CO)COP(=O)(O)O)cc1` [Fingolimod-P], the “binding affinity for S1P3” value (S1P3) is listed as “slightly lower affinity” and the “binding affinity for S1P1” value (S1P1) is listed as “highest binding affinity”.
